The text below walks through data of patent US9567329B2, “High penetration prodrug compositions of 1H-imidazo[4,5-c]quinolin-4-amines and 1H-imidazo[4,5-c]quinolin-4-amine-related compounds and uses thereof” (Techfields Pharma Co., Ltd, priority 2007, dated 2017).

In data set [1] the test system is Human breast cancer cells (BCAP-37). Kind of data set: Antitumor activity, breast cancer xenograft, topical treatment from day 1. Conditions: 50 μl of 3% topically once per day; after 28 days. The source says: Human breast cancer cells (BCAP-37, 4-5 mm^3 of tumor tissue was used in each mouse) were subcutaneous xenografted into nude mice (BALB).
For data set [2], the system named is Human colon cancer cells (LS174J). Put plainly: Antitumor activity, colon cancer xenograft, topical treatment from day 1. The settings on record: 50 μl of 3% topically twice per day; after 28 days. The text has this: Human colon cancer cells (LS174J, 4-5 mm^3 of tumor tissue was used in each mouse) were subcutaneously xenografted into nude mice (BALB).
The test system of data set [3] is Human breast cancer cells (BCAP-37). The settings on record: at day 45. The text has this:
Human breast cancer cells (BCAP-37, 3-4 mm^3 of tumor tissue was used in each mouse) were subcutaneously xenografted into nude mice (BALB).

The structures appear in SMILES notation.

As for `CC(C)Cn1cnc2c(N)nc3ccccc3c21.Cl` [1-isobutyl-1H-imidazo[4,5-c]quinolin-4-amine hydrochloride, reference compound], the “Average weight of mice, Human breast cancer” value in data set [1] is on record as 22 ± 2 g. Also, in data set [2], the “Average weight of mice, Human colon cancer” value is 21 ± 2 g. Also, the “average weights of the mice” value in data set [3] is recorded as 22±2 grams.
